Measurements from patent US20170172880A1, “Fast Dissolving Peroxymonosulfate Composition” (Colgate-Palmolive Company, priority 2015, published 2017).

Test: Whitening efficacy in a mouthwash type setup
Conditions: short 1 min exposure times

## O=S(=O)([O-])O[O-].[K+].[K+] [MPS, potassium peroxymonosulfate]
  whitening result compared with 2% hydrogen peroxide rinse: on par with the 2% hydrogen peroxide rinse
